Experimental data: ChEMBL document CHEMBL4145474, “Discovery of novel piperonyl derivatives as diapophytoene desaturase inhibitors for the treatment of methicillin-, vancomycin- and linezolid-resistant Staphylococcus aureus infections” (Eur J Med Chem, 2018)
Active and inactive are the calls of the source. No cut-off for these calls is given here.

Molecular target: T1, 4,4'-diapophytoene desaturase (4,4'-diaponeurosporene-forming) (Staphylococcus aureus (strain Newman)) (UniProt O07855)
T1 sequence (whole entry): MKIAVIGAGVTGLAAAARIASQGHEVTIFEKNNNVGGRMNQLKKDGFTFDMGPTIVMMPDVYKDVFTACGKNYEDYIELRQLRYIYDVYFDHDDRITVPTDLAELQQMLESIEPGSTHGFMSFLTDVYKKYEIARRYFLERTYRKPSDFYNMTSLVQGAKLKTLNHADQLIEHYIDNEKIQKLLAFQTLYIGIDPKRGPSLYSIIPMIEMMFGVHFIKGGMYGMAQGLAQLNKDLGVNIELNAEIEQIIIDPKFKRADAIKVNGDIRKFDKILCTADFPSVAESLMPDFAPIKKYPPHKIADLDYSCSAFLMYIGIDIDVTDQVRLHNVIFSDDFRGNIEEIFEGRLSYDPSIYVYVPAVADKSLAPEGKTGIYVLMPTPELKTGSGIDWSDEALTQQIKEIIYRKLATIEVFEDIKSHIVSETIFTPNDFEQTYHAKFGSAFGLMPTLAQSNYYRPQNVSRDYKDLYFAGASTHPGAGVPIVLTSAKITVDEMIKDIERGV
Assay: Inhibition of Staphylococcus aureus Newman 6His-tagged CrtN expressed in Escherichia coli BL21(DE3) assessed as 4,4'-diapophytoene accumulation by UV-HPLC analysis
Settings: Staphylococcus aureus subsp. aureus str. Newman
How it was run: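 Substrate was E. coli-derived diapophytoene emulsified with phosphatidylcholine in 0.02 M HEPES pH 7.5. Enzyme was lysate of E. coli BL21(DE3) expressing 6His-CrtN (0.5 mM IPTG, 16 °C), about 1.41 mg CrtN, plus FAD from a 10 mM stock. Run anaerobically (glucose oxidase 20 U/mL, catalase 20000 U/mL, glucose 2 mM final) overnight at 37 °C, stopped with methanol. Triplicate; diapophytoene monitored by HPLC at 286 nm.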

inhibition: Active
SMILES: CN(C/C=C/c1ccccc1)Cc1cccc2ccccc12
